The record followed here is paper PMC6912361, “Systemic Toxicity Reported for CDK8/19 Inhibitors CCT251921 and MSC2530818 Is Not Due to Target Inhibition” (Cells, 2019).

By UniProt entry, the sequences of proteins in these tests, tags left out. Where a name states a change or a piece, a line headed by the entry shows the natural chain unless it says otherwise.
UniProt Q9BWU1: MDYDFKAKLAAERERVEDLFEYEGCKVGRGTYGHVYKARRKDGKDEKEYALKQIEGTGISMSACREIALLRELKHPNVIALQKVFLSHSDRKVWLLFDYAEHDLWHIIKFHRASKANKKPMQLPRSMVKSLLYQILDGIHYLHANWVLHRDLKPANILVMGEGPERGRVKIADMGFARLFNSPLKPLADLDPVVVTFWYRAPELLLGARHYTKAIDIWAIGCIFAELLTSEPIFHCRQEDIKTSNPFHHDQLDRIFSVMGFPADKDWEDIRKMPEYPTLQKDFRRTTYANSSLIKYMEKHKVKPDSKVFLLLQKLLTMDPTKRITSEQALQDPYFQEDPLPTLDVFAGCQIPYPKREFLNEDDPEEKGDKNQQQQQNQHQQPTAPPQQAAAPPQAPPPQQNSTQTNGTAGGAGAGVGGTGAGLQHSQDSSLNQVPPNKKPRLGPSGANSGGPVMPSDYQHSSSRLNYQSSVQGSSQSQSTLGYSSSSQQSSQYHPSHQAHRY

pIC50, pKd: −log10 of the molar value. Read-outs that look alike come from different tables or passages of the source.

The target in test [1] is T1, CDK19 (Homo sapiens, UniProt Q9BWU1). Kind of test: Cell-based QPCR assay of CDK8/19-dependent gene expression, HEK293 CDK8 single-knockout (8KO) cells. Set-up: CDK8 single-knockout (8KO); endogenous in cells; host or cells: HEK293 CDK8 knockout (8KO). The following applies: HEK293 8KO, 1 h pre-treatment, then 10 ng/mL TNFα 2 h.
In test [2] the target is T1, CDK19. The test is described as follows: KdELECT Kd determination, CDK19. Set-up: purchased DiscoverX. The note with it: 11-point 3-fold serial dilution, duplicate; read-out: Kd for the inhibition of nucleotide binding, CDK19 (DiscoveRx symbol CDK11). The protocol: To determine dissociation constants (Kds) of compounds on different targets, an 11-point 3-fold serial dilution of each test compound was tested in independent duplicate assays.

As to `CN1CCN(C(=O)c2ccc3cc(CCNc4ncnc5ccc(C#N)cc45)ccc3c2)CC1` [Senexin B], the pIC50 was 7.17 in test [1] (read-out: IC50, CXCL1 mRNA expression, 8KO); 7.17 in test [1] (read-out: IC50, CXCL8 mRNA expression, 8KO); 7.31 in test [1] (read-out: IC50, MYC mRNA expression, 8KO). Moreover, the pKd in test [2] was 7.64.
